Read-outs that look alike come from different tables or passages of the source.
Tests used:
[1] = tested on: cardiomyocytes (left ventricle myocardium; uptake via L-type calcium channels); test: Manganese-enhanced T1 mapping MRI, kinetic analysis of cardiomyocyte cellular manganese uptake after MnDPDP infusion; format: in vivo, human; conditions: average of 5 patients with hypertrophic cardiomyopathia
Protocol: T1 mapping MRI was performed in a healthy volunteer to obtain baseline T1 values for the blood and myocardium before infusion of MnDPDP. A midventricular short axis view was used and a region of interest in the left ventricle myocardium and a region of interest in the blood in the ventricular cavity were used for measurements. An infusion of MnDPDP was administered at a rate of 50 μmol/min until a dose of 5 μmol/kg body weight was administered. The total infusion time was 7.5 minutes. T1 mapping MRI was performed every 2.5 minutes for a total of 40 minutes to collect data for kinetic analysis. […]
T1 mapping MRI was performed in a patient with a diagnosis of dilated cardiomyopathia to obtain baseline T1 values for the blood and myocardium before infusion of MnDPDP. […]
After the examination, the myocardial T1 values were converted to changes in relaxation rates from the baseline values according to equation 12. The heamocrit for the subject was measured to 0.44 and the plasma T1 values were converted to changes in relaxation rates according to equation 13. […]
The rate constant for cardiomyocyte intracellular relaxivity increase Kcell^ΔR1, and thus the cardiomyocyte cellular manganese uptake rate Kcell^Mn, was calculated according to the invention, applying equation 20 where the constant KECF was set equal to 1. […]

[2] = after end of 7.5 min infusion, 5 μmol/kg

halftime of decline of plasma ΔR1 ([2]; healthy volunteer): approximately 15 minutes
SMILES: Cc1ncc(COP(=O)(O)O)c(CN(CCN(CC(=O)[O-])Cc2c(COP(=O)(O)O)cnc(C)c2O)CC(=O)[O-])c1O.[Mn+2] [MnDPDP, manganese (II) N,N′-dipyridoxyl-ethylenediamine-N,N′-diacetate-5,5′-bis(phosphate)]
KECF, ratio between manganese concentration in ECF and plasma ([1]; ECV 0.322): 0.72
K3/K1, rate constant for irreversible uptake relative to rate constant for diffusion between plasma and ECF ([1]; assuming K1=K2): 0.40
halftime of decline of plasma ΔR1 ([2]; average of 5 patients with hypertrophic cardiomyopathia): approximately 12 minutes
halftime of decline of plasma ΔR1 ([2]; patient with dilated cardiomyopathia): approximately 12 minutes
